Test results as given in ChEMBL document CHEMBL5725448, “Substituted pyridobenzodiazepinone-derivatives and use thereof” (2018).

Sequences of proteins named here, by UniProt entry; tags and fusion partners are left off.
UniProt P09619, whole entry: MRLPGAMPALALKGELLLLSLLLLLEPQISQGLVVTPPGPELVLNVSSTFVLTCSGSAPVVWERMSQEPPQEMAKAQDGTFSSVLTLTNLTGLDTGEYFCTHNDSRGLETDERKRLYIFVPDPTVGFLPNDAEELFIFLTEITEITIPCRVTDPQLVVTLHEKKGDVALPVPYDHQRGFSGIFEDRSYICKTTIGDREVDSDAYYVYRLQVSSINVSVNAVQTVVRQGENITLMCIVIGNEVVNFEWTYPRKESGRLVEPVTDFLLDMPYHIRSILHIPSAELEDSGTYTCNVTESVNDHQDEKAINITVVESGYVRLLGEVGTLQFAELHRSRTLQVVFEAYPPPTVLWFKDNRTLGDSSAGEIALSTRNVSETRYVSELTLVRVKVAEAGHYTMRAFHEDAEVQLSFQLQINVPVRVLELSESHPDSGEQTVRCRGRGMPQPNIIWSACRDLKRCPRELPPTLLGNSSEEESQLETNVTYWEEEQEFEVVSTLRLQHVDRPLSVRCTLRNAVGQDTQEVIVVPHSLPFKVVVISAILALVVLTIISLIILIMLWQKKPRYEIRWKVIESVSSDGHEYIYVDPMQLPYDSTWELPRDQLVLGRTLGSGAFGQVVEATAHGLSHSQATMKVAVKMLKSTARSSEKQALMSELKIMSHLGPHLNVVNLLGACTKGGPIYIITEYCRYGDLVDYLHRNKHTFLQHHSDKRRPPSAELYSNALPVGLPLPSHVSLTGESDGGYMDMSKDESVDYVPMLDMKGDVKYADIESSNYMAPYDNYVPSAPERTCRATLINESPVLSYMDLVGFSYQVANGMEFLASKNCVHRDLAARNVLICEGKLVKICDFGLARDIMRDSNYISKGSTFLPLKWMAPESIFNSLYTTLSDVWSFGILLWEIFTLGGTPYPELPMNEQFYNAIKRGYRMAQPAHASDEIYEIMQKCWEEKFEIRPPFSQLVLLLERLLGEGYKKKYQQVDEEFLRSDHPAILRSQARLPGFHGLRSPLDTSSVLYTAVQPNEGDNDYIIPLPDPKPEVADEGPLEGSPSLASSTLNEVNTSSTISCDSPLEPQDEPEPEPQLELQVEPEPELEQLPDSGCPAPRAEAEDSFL

Molecular target: Platelet-derived growth factor receptor beta (Homo sapiens, UniProt P09619)
Assay: biochemical

- IC50: 2.08 nM
SMILES: CSCC(CO)NCc1ccc2c(c1)NC(=O)c1c(Nc3cc(O)c(C)cc3F)ccnc1N2 (stereo unspecified)
